# Laboratory results published in article PMC6424611.
# Columns and labels:
# [1] = biological target: biotinylated RSK1 725-735 peptide, phosphorylated at Ser732 (position -3) (human) (UniProt Q15418); assay: holdup assay
# [2] = biological target: biotinylated RSK1 725-735 peptide, unphosphorylated (human) (UniProt Q15418); assay: holdup assay
# [3] = biological target: fluorescein labeled RSK1 729-735 peptide, phosphorylated (human) (UniProt Q15418); assay: fluorescence polarisation
# [4] = biological target: biotinylated RSK1 725-735 peptide, unphosphorylated (human) (UniProt Q15418); assay: SPR
# [5] = biological target: biotinylated RSK1 725-735 peptide, phosphorylated at Ser732 (position -3) (human) (UniProt Q15418); assay: SPR
BI [1],BI [2],Kd [3] [µM],Kd [4] [µM],Kd [1] [µM],Kd [2] [µM],Kd [5] [µM],Substance
0.25,0.63,> 100,8.92,–,–,–,MBP-fused PDZ domain of GOPC (from UniProt Q9HD26 288-371) (domain or fragment)
0.47,–,–,–,17.1,> 100,46,MBP-fused PDZ domain of SNX27 (from UniProt Q96L92 43-136) (domain or fragment)
